Experimental findings from ChEMBL document CHEMBL5113471 (Eur J Med Chem, 2022) are described below.

Amino acid sequences for entries named in this document (tags omitted).
UniProt P09874, whole entry: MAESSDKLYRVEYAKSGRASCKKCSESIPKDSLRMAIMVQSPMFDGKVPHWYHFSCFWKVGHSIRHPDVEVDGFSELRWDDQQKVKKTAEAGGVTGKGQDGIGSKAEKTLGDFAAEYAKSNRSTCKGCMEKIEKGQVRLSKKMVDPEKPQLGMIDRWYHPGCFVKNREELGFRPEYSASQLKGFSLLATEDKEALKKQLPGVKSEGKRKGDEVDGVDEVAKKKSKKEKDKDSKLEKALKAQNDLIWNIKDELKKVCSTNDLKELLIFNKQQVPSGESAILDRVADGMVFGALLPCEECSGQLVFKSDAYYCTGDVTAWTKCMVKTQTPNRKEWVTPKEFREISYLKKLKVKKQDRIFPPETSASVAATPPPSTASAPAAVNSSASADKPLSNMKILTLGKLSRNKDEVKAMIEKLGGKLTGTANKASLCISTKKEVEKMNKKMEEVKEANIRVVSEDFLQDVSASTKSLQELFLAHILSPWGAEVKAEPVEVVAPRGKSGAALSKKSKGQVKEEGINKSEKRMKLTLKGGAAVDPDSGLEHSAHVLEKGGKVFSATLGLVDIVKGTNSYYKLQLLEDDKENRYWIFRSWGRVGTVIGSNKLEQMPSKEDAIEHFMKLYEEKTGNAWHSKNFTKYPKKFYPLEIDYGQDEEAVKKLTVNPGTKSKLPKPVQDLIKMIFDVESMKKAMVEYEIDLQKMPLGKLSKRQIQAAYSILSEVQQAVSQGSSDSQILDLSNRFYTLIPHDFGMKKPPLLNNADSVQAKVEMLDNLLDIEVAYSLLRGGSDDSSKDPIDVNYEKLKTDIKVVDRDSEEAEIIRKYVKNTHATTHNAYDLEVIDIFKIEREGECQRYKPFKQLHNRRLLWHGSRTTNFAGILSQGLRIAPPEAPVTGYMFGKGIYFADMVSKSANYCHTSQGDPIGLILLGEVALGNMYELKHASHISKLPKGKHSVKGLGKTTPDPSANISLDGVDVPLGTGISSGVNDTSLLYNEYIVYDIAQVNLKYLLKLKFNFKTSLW

Molecules are shown by their SMILES.

The target in the test is Poly [ADP-ribose] polymerase 1 (Homo sapiens, UniProt P09874). The test can be described thus: Potency index, ratio of olaparib IC50 to test compound IC50 for human recombinant PARP1.

Regarding `C=C1C(=O)OC2C[C@@]3(C)CCC=C(COC(=O)CCN(C)C(=O)c4cc(Cc5n[nH]c(=O)c6ccccc56)ccc4F)C3=CC12` (stereo partly specified), the Ratio IC50 amounted to 5.
